For one assay, the target named is T1, MKK7 (Homo sapiens, UniProt O14733).
T1 sequence (O14733 1-419): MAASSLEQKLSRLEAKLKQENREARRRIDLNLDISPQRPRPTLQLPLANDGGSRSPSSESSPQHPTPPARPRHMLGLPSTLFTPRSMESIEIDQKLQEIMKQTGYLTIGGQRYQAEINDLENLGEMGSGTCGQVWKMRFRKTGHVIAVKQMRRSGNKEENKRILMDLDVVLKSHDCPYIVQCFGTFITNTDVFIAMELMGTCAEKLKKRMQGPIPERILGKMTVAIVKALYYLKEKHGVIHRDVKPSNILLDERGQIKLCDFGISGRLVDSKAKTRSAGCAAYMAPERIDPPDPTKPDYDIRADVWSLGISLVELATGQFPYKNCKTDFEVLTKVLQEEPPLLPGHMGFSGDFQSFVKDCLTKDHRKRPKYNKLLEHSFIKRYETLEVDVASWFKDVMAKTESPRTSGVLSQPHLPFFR
Briefly: KINOMEscan competition binding assay, selectivity MKK7 versus MKK4. To be noted: Test conc. 0.1 μM; ratio of percent of control; N/E* per footnote.

Sequences of proteins named here, by UniProt entry; tags and fusion partners are left off. Residues count along the entry.
UniProt P15056, whole entry: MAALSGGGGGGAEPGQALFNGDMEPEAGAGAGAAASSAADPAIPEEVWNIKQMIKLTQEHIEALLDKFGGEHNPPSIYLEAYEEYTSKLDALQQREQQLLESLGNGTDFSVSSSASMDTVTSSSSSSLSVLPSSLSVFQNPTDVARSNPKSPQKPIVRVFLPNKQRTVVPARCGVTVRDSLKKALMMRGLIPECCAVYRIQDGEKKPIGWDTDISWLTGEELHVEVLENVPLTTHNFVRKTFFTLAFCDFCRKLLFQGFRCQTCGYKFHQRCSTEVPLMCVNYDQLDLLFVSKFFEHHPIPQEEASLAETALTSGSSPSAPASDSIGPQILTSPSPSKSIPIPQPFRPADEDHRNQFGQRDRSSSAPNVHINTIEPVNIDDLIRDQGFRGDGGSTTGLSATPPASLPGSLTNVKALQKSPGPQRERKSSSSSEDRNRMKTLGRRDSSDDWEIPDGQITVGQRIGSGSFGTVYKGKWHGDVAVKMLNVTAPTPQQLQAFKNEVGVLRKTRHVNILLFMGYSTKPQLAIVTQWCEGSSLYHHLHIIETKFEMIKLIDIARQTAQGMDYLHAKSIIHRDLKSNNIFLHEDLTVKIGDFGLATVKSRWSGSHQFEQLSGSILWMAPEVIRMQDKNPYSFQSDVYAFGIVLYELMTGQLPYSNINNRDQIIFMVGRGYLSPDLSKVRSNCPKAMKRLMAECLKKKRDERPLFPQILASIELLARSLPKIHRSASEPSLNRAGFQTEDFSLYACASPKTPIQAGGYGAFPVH
UniProt P45983, 1-384 isoform P45983-2: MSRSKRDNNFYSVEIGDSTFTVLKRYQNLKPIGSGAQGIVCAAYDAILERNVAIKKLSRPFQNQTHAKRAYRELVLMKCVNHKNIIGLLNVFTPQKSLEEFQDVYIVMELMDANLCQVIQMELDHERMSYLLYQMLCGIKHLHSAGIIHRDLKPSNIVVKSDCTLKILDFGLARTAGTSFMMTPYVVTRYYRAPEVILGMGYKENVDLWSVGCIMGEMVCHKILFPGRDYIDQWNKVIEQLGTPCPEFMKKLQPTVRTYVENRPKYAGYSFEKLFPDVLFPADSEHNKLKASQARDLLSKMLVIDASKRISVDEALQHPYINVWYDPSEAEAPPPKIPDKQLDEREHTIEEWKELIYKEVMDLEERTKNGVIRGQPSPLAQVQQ

In another assay the target is T2, MKK4 (Homo sapiens, UniProt P45985).
T2 sequence (P45985 84-399): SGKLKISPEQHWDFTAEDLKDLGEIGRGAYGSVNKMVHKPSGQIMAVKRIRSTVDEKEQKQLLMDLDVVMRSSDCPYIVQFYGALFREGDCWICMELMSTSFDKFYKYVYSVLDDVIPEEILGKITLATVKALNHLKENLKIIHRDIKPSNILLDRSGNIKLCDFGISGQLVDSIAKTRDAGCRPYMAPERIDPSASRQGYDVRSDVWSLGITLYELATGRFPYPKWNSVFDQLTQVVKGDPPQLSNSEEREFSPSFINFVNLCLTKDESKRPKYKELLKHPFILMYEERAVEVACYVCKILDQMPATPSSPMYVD
Briefly: KINOMEscan competition binding assay, MKK4. To be noted: read-out: Potency MKK4 (derived from % of control values, PoC).

A further assay deals with BRaf (Homo sapiens, UniProt P15056). The experiment in a line: KINOMEscan competition binding assay, selectivity BRaf versus MKK4. As to conditions: Test conc. 0.1 μM; ratio of percent of control; N/E* per footnote. How it is done:
The assay was performed by combining three components: DNA-tagged kinase; immobilized ligand; and a test compound. The ability of the test compound to compete with the immobilized ligand was measured via quantitative PCR of the DNA tag. The technology is described in detail in Fabian, M. A. et al. A small molecule-kinase interaction map for clinical kinase inhibitors. Nat. […] Nat.
The test compounds were provided as 10 mM stock solutions. The test solutions at indicated final concentrations were prepared at DiscoverX.

Another assay has as its target JNK1 (Homo sapiens, UniProt P45983). The experiment in a line: KINOMEscan competition binding assay, selectivity JNK1 versus MKK4. As to conditions: ratio of percent of control.
Another assay deals with T3, MKK4 active (Homo sapiens, UniProt P45985).
T3 construct: purchased ProQinase 0948-0000-1
T3 sequence (P45985 1-399): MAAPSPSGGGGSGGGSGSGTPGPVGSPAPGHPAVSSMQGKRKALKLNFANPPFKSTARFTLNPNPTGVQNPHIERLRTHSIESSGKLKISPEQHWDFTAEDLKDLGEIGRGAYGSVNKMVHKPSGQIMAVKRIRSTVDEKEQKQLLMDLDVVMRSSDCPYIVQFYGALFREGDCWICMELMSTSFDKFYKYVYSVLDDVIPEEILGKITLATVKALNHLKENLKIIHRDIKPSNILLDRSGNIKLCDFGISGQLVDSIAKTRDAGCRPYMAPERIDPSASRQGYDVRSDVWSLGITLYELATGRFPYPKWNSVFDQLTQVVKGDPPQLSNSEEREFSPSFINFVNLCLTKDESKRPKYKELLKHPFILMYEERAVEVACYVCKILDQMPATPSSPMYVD
The experiment in a line: Radiometric protein kinase assay, MKK4 active. The format is biochemical. How it is done: A radiometric protein kinase assay was used for measuring the kinase activity of the respective protein kinases. All kinase assays were performed in 96-well polypropylene plates. After the reactions were stopped, the assay mixtures were transferred to 96-well MSFC filter-plates (Millipore). The reaction mix was passed through the filter membrane by aspiration, the membrane was washed 3 times with 150 mM H3PO4, once with ethanol, dried and liquid scintillation cocktail was added. Radioactivity was determined by counting of the samples in a Microbeta multiwell scintillation counter (Wallac).
b) Single Kinases • 20 μl standard assay buffer • 5 μl compound in 10% DMSO • 20 μl enzyme-substrate mix • 10 μl of substrate solution
The reaction cocktails were incubated at 30° C. for 30 minutes.

[1] abbreviates: Test conc 0.1 μM, N/E* = PoC for JNK1 = 100.

Read-outs that look alike come from different tables or passages of the source.

For `CCCS(=O)(=O)Nc1ccc(F)c(C(=O)c2c[nH]c3ncc(-c4cccs4)cc23)c1F` [Example 5, N-(2,4-Difluoro-3-(5-(thiophen-2-yl)-1H-pyrrolo[2,3-b]pyridine-3-carbonyl)phenyl)propane-1-sulfonamide], the “Selectivity MKK7/MKK4” value at MKK7 is 22. In addition, the remaining binding at 0.1 µM on MKK4 lay in the range of 10 to 30%. At BRaf, the “Selectivity BRaf/MKK4” value is 2.9. In addition, on JNK1 (Test conc 10 μM), the “Selectivity JNK1/MKK4” value is reported as greater than 100.
The IC50 is the concentration at which inhibition is half-maximal. With `CCCS(=O)(=O)Nc1ccc(F)c(C(=O)c2c[nH]c3ncc(-c4cccc(N)c4)cc23)c1F` [Example 19, N-(3-(5-(3-Aminophenyl)-1H-pyrrolo[2,3-b]pyridine-3-carbonyl)-2,4-difluorophenyl)propane-1-sulfonamide], the IC50 on MKK4 active (MKK4 active, substrate JNK1 KRKR, ATP 0.2 μM, read-out: MKK4 (potency derived from IC50-values)) was less than 500 nM. Also, the “Selectivity MKK7/MKK4” value at MKK7 is given as 60. Besides, the remaining binding at 0.1 µM at MKK4 lay within 10 to 30%. Besides, the “Selectivity BRaf/MKK4” value at BRaf is 3.4. At JNK1 (Test conc 10 μM), the “Selectivity JNK1/MKK4” value amounted to 1.
For `CCCS(=O)(=O)Nc1ccc(C)c(C(=O)c2c[nH]c3ncc(-c4ccc(Cl)cc4)cc23)c1` [Example 26, N-(3-(5-(4-Chlorophenyl)-1H-pyrrolo[2,3-b]pyridine-3-carbonyl)-4-methylphenyl)propane-1-sulfonamide], the remaining binding at 0.1 µM at MKK4 is greater than 30%.
With `CS(=O)(=O)Nc1cccc(C(=O)c2c[nH]c3ncc(-c4ccc(Cl)cc4)cc23)c1F` [Example 35, N-(3-(5-(4-Chlorophenyl)-1H-pyrrolo[2,3-b]pyridine-3-carbonyl)-2-fluorophenyl)methanesulfonamide], the “Selectivity MKK7/MKK4” value at MKK7 stood at 2.9. On MKK4, the remaining binding at 0.1 µM lay within 10 to 30%. Further, the “Selectivity BRaf/MKK4” value at BRaf is listed as 3.3. In addition, at JNK1 (setting [1]), the “Selectivity JNK1/MKK4” value is given as “N/E* (PoC for JNK1 = 100)”.
For `CCCS(=O)(=O)Nc1ccc(F)c(C2(c3c[nH]c4ncc(-c5ccc(Cl)cc5)cc34)OCCO2)c1F` [Example 104, N-(3-(2-(5-(4-chlorophenyl)-1H-pyrrolo[2,3-b]pyridin-3-yl)-1,3-dioxolan-2-yl)-2,4-difluorophenyl)propane-1-sulfonamide], the IC50 on MKK4 active was 1000 to 10000 nM.
`CCCS(=N)(=O)Nc1ccc(F)c(C(=O)c2c[nH]c3ncc(-c4ccc(Cl)cc4)cc23)c1F` (stereo not shown) [Example 112, N-(3-(5-(4-chlorophenyl)-1H-pyrrolo[2,3-b]pyridine-3-carbonyl)-2,4-difluorophenyl)propane-1-sulfonimidamide]: the “Selectivity MKK7/MKK4” value on MKK7 stood at 3.8. Also, the remaining binding at 0.1 µM at MKK4 fell in the range of 10 to 30%. Also, the “Selectivity BRaf/MKK4” value on BRaf stood at 1.4. Besides, at JNK1 (setting [1]), the “Selectivity JNK1/MKK4” value amounted to 3.5.

These data come from patent US11040027B2, “Protein kinase inhibitors for promoting liver regeneration or reducing or preventing hepatocyte death” (HEPAREGENIX GMBH, priority 2017, dated 2021).
